Biological target: human HERG K+ channel (Homo sapiens, UniProt Q12809)

Amino acid sequences for entries named in this document (tags omitted). A change or cut given only in a name is not applied to a line headed by its entry.
UniProt Q12809: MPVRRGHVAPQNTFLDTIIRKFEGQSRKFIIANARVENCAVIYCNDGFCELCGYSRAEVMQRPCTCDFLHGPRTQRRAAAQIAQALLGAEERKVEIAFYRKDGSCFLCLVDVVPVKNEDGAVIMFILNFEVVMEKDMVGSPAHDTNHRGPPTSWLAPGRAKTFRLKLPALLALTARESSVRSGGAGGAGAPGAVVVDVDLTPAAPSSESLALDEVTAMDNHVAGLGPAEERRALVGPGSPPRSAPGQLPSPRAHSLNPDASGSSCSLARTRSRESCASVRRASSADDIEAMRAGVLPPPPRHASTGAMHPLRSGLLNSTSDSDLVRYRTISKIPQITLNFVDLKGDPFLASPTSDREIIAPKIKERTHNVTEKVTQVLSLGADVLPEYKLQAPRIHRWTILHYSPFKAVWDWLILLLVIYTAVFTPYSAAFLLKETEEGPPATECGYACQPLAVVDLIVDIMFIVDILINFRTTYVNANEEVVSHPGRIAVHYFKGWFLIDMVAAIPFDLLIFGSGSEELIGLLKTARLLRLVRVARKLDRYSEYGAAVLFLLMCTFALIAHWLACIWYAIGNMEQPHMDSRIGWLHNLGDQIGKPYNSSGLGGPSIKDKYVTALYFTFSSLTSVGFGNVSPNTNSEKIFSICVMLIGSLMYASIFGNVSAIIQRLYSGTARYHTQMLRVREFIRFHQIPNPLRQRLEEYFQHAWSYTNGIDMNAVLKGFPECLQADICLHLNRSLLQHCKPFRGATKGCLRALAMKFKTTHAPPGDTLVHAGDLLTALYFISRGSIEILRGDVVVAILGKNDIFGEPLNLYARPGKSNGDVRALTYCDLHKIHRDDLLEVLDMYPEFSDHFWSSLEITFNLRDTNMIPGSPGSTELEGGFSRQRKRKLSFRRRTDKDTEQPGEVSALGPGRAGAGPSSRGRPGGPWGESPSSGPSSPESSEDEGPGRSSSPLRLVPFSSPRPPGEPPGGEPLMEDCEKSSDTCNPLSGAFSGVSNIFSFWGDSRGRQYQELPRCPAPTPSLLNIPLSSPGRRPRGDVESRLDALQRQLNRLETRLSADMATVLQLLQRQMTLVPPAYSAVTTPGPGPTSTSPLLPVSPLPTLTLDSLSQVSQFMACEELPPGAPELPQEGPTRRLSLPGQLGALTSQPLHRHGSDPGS

Q: Which “inhibition of specific binding of [3H]-dofetilide” value does the source give for `COc1cc(N)c(Cl)cc1C(=O)NC1CCN(CCCOc2ccc(F)cc2)CC1OC` (stereo not shown) [Cisapride] here?
A: complete inhibition

Q: How did the Bmax turn out when [^3H]-dofetilide was run?
A: 7.4 ± 0.7 pmol/mg

Q: What about the Kd of the same compound?
A: 5.08 ± 1 nM

Q: With `CN(CCOc1ccc(NS(C)(=O)=O)cc1)CCc1ccc(NS(C)(=O)=O)cc1` [Dofetilide] as the compound, how does the “inhibition of specific binding of [3H]-dofetilide” value read?
A: complete inhibition
